The results in this text go back to PMC7950132 (Molecular & Cellular Proteomics : MCP, 2021).

The target of this assay is T1, ELOB/C-CUL5(NEDD8)-RBX2 (human | mouse, UniProt Q15370 1-118; Q15369 17-112; Q93034 1-780; Q9WTZ1 1-113; Q15843 1-76, NEDD8 attached at K724).
T1 construct: elongin B, human, full-length; elongin C, human, residues 17-112; cullin 5, human; ring box protein 2 (RBX2), mouse; NEDD8, human, conjugated to CUL5; NEDD8 is covalently linked to CUL5 K724; Ni-NTA capture came before the cleavage; also called neddylated CUL5 complex; neddylated CRL; source: E. coli BL21, CUL5/RBX2/ELOB/C coexpressed, neddylated in mixed lysates, purified (Ni-NTA, SEC); not …
Briefly: SEC; ARIH2 mixed with an equimolar amount of ELOB/C-CUL5(NEDD8)-RBX2 or ELOB/C-CUL5-RBX2, separated by size exclusion; fractions on SDS-PAGE. As to conditions: both partners purified. (In gel filtration, larger molecules generally elute earlier.)

B1: Ariadne RBR E3 ubiquitin protein ligase 2 (ARIH2) (enzyme, human, UniProt O95376 1-493, looked up)
chain: MSVDMNSQGSDSNEEDYDPNCEEEEEEEEDDPGDIEDYYVGVASDVEQQGADAFDPEEYQFTCLTYKESEGALNEHMTSLASVLKVSHSVAKLILVNFHWQVSEILDRYKSNSAQLLVEARVQPNPSKHVPTSHPPHHCAVCMQFVRKENLLSLACQHQFCRSCWEQHCSVLVKDGVGVGVSCMAQDCPLRTPEDFVFPLLPNEELREKYRRYLFRDYVESHYQLQLCPGADCPMVIRVQEPRARRVQCNRCNEVFCFKCRQMYHAPTDCATIRKWLTKCADDSETANYISAHTKDCPKCNICIEKNGGCNHMQCSKCKHDFCWMCLGDWKTHGSEYYECSRYKENPDIVNQSQQAQAREALKKYLFYFERWENHNKSLQLEAQTYQRIHEKIQERVMNNLGTWIDWQYLQNAAKLLAKCRYTLQYTYPYAYYMESGPRKKLFEYQQAQLEAEIENLSWKVERADSYDRGDLENQMHIAEQRRRTLLKDFHDT
notes: ARIH2, human, codon-optimised synthetic gene; also called ARIH2 RBRL; source: E. coli BL21, purified (Ni-NTA, SEC); not shown: His6, N-terminal, cleaved; MBP, N-terminal, cleaved
With B1, the binding result was “binds”.
